Each structure is given as a SMILES string.

Amino acid sequences for entries named in this document (tags omitted). A change or cut given only in a name is not applied to a line headed by its entry.
UniProt Q99500: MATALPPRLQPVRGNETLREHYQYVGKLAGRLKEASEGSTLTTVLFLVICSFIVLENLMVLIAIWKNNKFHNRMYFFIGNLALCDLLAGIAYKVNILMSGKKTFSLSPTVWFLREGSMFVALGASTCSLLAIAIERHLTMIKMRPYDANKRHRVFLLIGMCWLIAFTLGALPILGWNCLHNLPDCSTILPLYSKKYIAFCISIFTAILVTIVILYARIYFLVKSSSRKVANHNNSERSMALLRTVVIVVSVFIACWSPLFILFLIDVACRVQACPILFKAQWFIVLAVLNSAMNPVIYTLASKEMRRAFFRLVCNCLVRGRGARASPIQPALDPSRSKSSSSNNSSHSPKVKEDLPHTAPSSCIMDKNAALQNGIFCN
UniProt P21453, whole entry: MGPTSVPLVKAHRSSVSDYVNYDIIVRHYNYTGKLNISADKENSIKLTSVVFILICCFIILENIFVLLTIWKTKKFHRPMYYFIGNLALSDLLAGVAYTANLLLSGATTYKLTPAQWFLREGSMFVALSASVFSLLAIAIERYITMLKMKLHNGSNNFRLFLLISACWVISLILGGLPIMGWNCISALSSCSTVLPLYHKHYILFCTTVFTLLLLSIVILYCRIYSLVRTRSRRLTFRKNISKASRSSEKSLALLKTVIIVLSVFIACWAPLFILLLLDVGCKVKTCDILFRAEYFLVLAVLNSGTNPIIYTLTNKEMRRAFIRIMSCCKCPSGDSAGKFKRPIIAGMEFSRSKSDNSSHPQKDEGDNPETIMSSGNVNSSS
UniProt O95136: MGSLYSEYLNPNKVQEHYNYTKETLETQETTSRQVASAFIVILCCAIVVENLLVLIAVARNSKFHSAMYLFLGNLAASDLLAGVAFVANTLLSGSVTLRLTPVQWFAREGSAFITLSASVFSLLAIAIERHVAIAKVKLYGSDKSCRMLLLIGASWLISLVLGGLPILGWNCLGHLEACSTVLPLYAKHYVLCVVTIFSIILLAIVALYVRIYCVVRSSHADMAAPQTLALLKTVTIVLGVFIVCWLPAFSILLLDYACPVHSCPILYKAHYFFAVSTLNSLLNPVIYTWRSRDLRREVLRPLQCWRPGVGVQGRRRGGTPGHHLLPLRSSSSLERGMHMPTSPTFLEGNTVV

The first assay deals with hS1P3 (Homo sapiens, UniProt Q99500). Nature of the assay: S1P receptor subtype selectivity, S1P-induced [Ca2+]i increase in CHO-K1 cells stably expressing S1P3 (Calcium3). It counts as cell-based. Particulars: CHO-K1, read-out: Suppression rate at 10 μM (%) hS1P3. On the procedure:
(§1) The selectivity to the S1P receptor subtype was examined in the following manner. […] Furthermore, a Calcium3 (Molecular Devices, Inc.) solution prepared in HBSS (+) buffer, which is a fluorescent Ca^2+ indicator, was added, and the cells were incubated for 60 minutes at 37° C. Then, 100 μL of a test compound solution prepared to a concentration of 2×10 μmol/L was added, and the cells were incubated for 20 minutes at 37° C. […] The indicator was prepared and used according to the instruction manual.
(§2) A solution of the test compound was prepared by dissolving each of the test compounds in DMSO to a concentration of 10 mmol/L, and then diluting the solution with an HBSS (+) buffer solution to the predetermined concentration. […] The measurement values were obtained by subtracting the maximum RFU value for the blind test from the maximum RFU values for control or each test compounds. A decrease in the measurement value for the test compound relative to the control was indicated as the suppression rate (%), from which the IC50 value was calculated.
For the compound `Cc1ccc(NN=C(Nc2cccc(F)c2)C(=O)C(C)(C)C)cc1` [Compound 61, 1-(3-fluorophenylamino)-1-(4-methylphenylhydrazono)-3,3-dimethyl-2-butanone], the inhibition at 10 µM amounted to 95.5%.
Still for that read-out and setting: with `CC(C)(C)C(=O)C(=NNc1ccc(F)cc1)Nc1cccc(F)c1` [Compound 53, 1-(3-fluorophenylamino)-1-(4-fluorophenylhydrazono)-3,3-dimethyl-2-butanone] the figure was 100%; with `CC(C)(C)C(=O)C(=NNc1cccc(Cl)c1)Nc1cccc(F)c1` [Compound 41, 1-(3-chlorophenylhydrazono)-1-(3-fluorophenylamino)-3,3-dimethyl-2-butanone], 103%; with `Cc1ccc(NN=C(Nc2ccc(Cl)c(Cl)c2)C(=O)C(C)(C)C)cc1` [Compound 65, 1-(3,4-dichlorophenylamino)-1-(4-methylphenylhydrazono)-3,3-dimethyl-2-butanone], 96.3%.
Regarding `CC(C)(C)CC(=O)C(=NNc1ccc(Cl)cc1)Nc1cccc(F)c1` [Compound 113, 1-(4-chlorophenylhydrazono)-1-(3-fluorophenylamino)-4,4-dimethyl-2-pentanone], the inhibition at 10 µM is 92.5%.
On the same count and under the same terms, for `C#Cc1ccc(NN=C(Nc2cccc(Cl)c2)C(=O)C(C)(C)C)cc1` [Compound 108, 1-(3-chlorophenylamino)-1-(4-ethynylphenylhydrazono)-3,3-dimethyl-2-butanone] the value was 88.9%.
`CC(C)(C)NC(=O)C(=NNc1ccc(Cl)cc1)Nc1cccc(F)c1` [Compound 28, N-tert-butyl-[1-(4-chlorophenylhydrazono)-1-(3-fluorophenylamino)]acetamide]: the inhibition at 10 µM was 79%.
For `CC(C)(C)C(=O)C(=NNc1ccc(Cl)cc1)Nc1cccc(Cl)c1` [Compound 133, 1-(3-chlorophenylamino)-1-(4-chlorophenylhydrazono)-3,3-dimethyl-2-butanone], the inhibition at 10 µM is 91.7%.
Same read-out and setting: for `CC(C)(C)C(=O)C(=NNc1ccc(Br)cc1)Nc1ccc(Cl)cc1` [Compound 75, 1-(4-bromophenylhydrazono)-1-(4-chlorophenylamino)-3,3-dimethyl-2-butanone] the value was 102%; for `CC(C)(C)CC(=O)C(=NNc1ccc(Cl)cc1)Nc1ccc(Cl)cc1` [Compound 139, 1-(4-chlorophenylamino)-1-(4-chlorophenylhydrazono)-4,4-dimethyl-2-pentanone], 82.3%; for `CCOC(=O)C(=NNc1ccc(Cl)cc1)Nc1cccc(C#N)c1` [Compound 20, ethyl 1-(4-chlorophenylhydrazono)-1-(3-cyanophenylamino)acetate], 66.5%.
For the compound `CC(C)(C)C(=O)C(=NNc1ccc(Cl)c(Cl)c1)Nc1cccc(F)c1` [Compound 104, 1-(3,4-dichlorophenylhydrazono)-1-(3-fluorophenylamino)-3,3-dimethyl-2-butanone], the inhibition at 10 µM amounted to 95.9%.
In the case of `CCOC(=O)C(=NNc1ccc(Cl)cc1)Nc1cccc(F)c1` [Compound 13, ethyl 1-(4-chlorophenylhydrazono)-1-(3-fluorophenylamino)acetate], the inhibition at 10 µM worked out at 99%.
In the case of `CC(C)(C)C(=O)C(=NNc1ccccc1)Nc1cccc(F)c1` [Compound 49, 1-(3-fluorophenylamino)-1-(phenylhydrazono)-3,3-dimethyl-2-butanone], the inhibition at 10 µM was 96.6%.
On the same count and under the same terms, for `CCCCC(=O)C(=NNc1ccc(Cl)cc1)Nc1ccc(Cl)cc1` [Compound 115, 1-(4-chlorophenylamino)-1-(4-chlorophenylhydrazono)-2-hexanone] the value was 102%; for `Cc1ccc(NN=C(Nc2ccc(C)cc2)C(=O)C(C)(C)C)cc1` [Compound 63, 1-(4-methylphenylamino)-1-(4-methylphenylhydrazono)-3,3-dimethyl-2-butanone], 76.5%; for `C#Cc1ccc(NN=C(Nc2cccc(F)c2)C(=O)C(C)(C)C)cc1` [Compound 131, 1-(3-fluorophenylamino)-1-(4-ethynylphenylhydrazono)-3,3-dimethyl-2-butanone], 81.7%.
The same measure, in the same setting: with `CC(C)(C)C(=O)C(=NNc1ccc(Br)cc1)Nc1ccc(Cl)c(Cl)c1` [Compound 80, 1-(4-bromophenylhydrazono)-1-(3,4-dichlorophenylamino)-3,3-dimethyl-2-butanone] the figure was 101%.
The same measure, in the same setting: with `CC(C)(C)NC(=O)C(=NNc1ccc(Cl)cc1)Nc1ccc(Cl)cc1` [Compound 29, N-tert-butyl-[1-(4-chlorophenylamino)-1-(4-chlorophenylhydrazono)]acetamide] the figure was 90.4%; with `COc1ccc(NC(=NNc2ccc(F)cc2)C(=O)C(C)(C)C)cc1` [Compound 57, 1-(4-fluorophenylhydrazono)-1-(4-methoxyphenylamino)-3,3-dimethyl-2-butanone], 73.9%; with `Cc1ccc(NN=C(Nc2cc(Cl)cc(Cl)c2)C(=O)C(C)(C)C)cc1` [Compound 64, 1-(3,5-dichlorophenylamino)-1-(4-methylphenylhydrazono)-3,3-dimethyl-2-butanone], 94.6%.
Regarding `CC(C)(C)CC(=O)C(=NNc1ccc(Cl)cc1)Nc1cccc(Cl)c1` [Compound 140, 1-(3-chlorophenylamino)-1-(4-chlorophenylhydrazono)-4,4-dimethyl-2-pentanone], the inhibition at 10 µM was found to be 91.9%.
Still for that read-out and setting: for `CC(C)(C)C(=O)C(=NNc1ccccc1)Nc1ccc(Cl)c(Cl)c1` [Compound 52, 1-(3,4-dichlorophenylamino)-1-(phenylhydrazono)-3,3-dimethyl-2-butanone] the value was 101%.
As to `CCC(CC)C(=O)C(=NNc1ccc(Cl)cc1)Nc1cccc(Cl)c1` [Compound 137, 1-(3-chlorophenylamino)-1-(4-chlorophenylhydrazono)-3-ethyl-2-pentanone], the inhibition at 10 µM was determined as 86%.
Still for that read-out and setting: for `CC(C)(C)C(=O)C(=NNc1ccccc1)Nc1ccc(Cl)cc1` [Compound 50, 1-(4-chlorophenylamino)-1-(phenylhydrazono)-3,3-dimethyl-2-butanone] the value was 97.7%.
Still for that read-out and setting: for `Cc1ccc(NN=C(Nc2ccc(Cl)cc2)C(=O)C(C)(C)C)cc1` [Compound 62, 1-(4-chlorophenylamino)-1-(4-methylphenylhydrazono)-3,3-dimethyl-2-butanone] the value was 95.5%; for `C#Cc1ccc(NC(=NNc2ccc(Cl)cc2)C(=O)c2ccco2)cc1` [Compound 117, 1-(4-chlorophenylhydrazono)-1-(4-ethynylphenylamino)-2-(2-furyl)-2-ethanone], 98.6%; for `CCOC(=O)C(=NNc1ccc(Cl)cc1)Nc1ccccc1` [Compound 19, ethyl 1-(4-chlorophenylhydrazono)-1-(phenylamino)acetate], 101%.
Consider `CC(C)(C)C(=O)C(=NNc1cccc(Cl)c1)Nc1ccc(Cl)cc1` [Compound 42, 1-(4-chlorophenylamino)-1-(3-chlorophenylhydrazono)-3,3-dimethyl-2-butanone], for which the inhibition at 10 µM stood at 93.8%.

Another assay has as its target T1, hS1P1 (Homo sapiens, UniProt P21453).
T1 construct: expressed in transfected cells
Put plainly: S1P receptor subtype selectivity, S1P-induced [Ca2+]i increase in CHO-K1 cells stably expressing S1P1 (Calcium3). It counts as cell-based. Particulars: 10 μM; CHO-K1 stably expressing S1P1; S1P solution 100 nmol/L; Calcium3; read-out: Suppression rate at 10 μM (%) hS1P1. On the procedure:
as §1, §2
Turning to `CC(C)(C)C(=O)C(=NNc1ccc(Cl)cc1)Nc1cccc(F)c1` [Compound 32, 1-(4-chlorophenylhydrazono)-1-(3-fluorophenylamino)-3,3-dimethyl-2-butanone], the inhibition at 10 µM worked out at 22.4%.

The same assay, now with this note: CHO-K1, read-out: Suppression rate at 10 μM (%) hS1P1.
As for `CC(C)(C)C(=O)C(=NNc1ccc(Cl)cc1)Nc1ccc(Cl)cc1` [Compound 33, 1-(4-chlorophenylamino)-1-(4-chlorophenylhydrazono)-3,3-dimethyl-2-butanone], the inhibition at 10 µM worked out at 29.5%.

The target of another assay is T2, hS1P2 (Homo sapiens, UniProt O95136).
T2 construct: expressed in transfected cells
Nature of the assay: S1P receptor subtype selectivity, S1P-induced [Ca2+]i increase in CHO-K1 cells stably expressing S1P2 (Calcium3). To be noted: 10 μM; CHO-K1 stably expressing S1P2; S1P solution 100 nmol/L; Calcium3; read-out: Suppression rate at 10 μM (%) hS1P2. It counts as cell-based. On the procedure:
as §1, §2
For the compound `CC(C)(C)C(=O)C(=NNc1ccc(Cl)cc1)Nc1cccc(F)c1` [Compound 32, 1-(4-chlorophenylhydrazono)-1-(3-fluorophenylamino)-3,3-dimethyl-2-butanone], the inhibition at 10 µM is -11.1%.

The same assay, now with this note: CHO-K1, read-out: Suppression rate at 10 μM (%) hS1P2.
As to `CC(C)(C)C(=O)C(=NNc1ccc(Cl)cc1)Nc1ccc(Cl)cc1` [Compound 33, 1-(4-chlorophenylamino)-1-(4-chlorophenylhydrazono)-3,3-dimethyl-2-butanone], the inhibition at 10 µM worked out at 1.7%.
